# Permeability data for macrocyclic peptides

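The data file gives no further conditions (lipid, pH, time, direction or concentration), and values from different papers need not be comparable. The list need not hold all peptides of the study. Entries at the database's floor value (log10 P of -10) are not listed.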

PAMPA is the parallel artificial membrane permeability assay, which has no cells and reads passive diffusion. P is given in units of 10^-6 cm/s (from log10 values with two decimals); larger means faster passage.

structure (SMILES) | PAMPA (10^-6 cm/s)
CC(C)C[C@@H]1NC(=O)[C@@H](CC(C)C)NC(=O)[C@H](C)N(C)C(=O)[C@@H]2CCCN2C(=O)[C@H](Cc2ccccc2)NC(=O)[C@@H](CC(C)C)N(C)C(=O)[C@H]2CCCN2C1=O | 5.8
CC(C)C[C@@H]1C(=O)N2CCC[C@H]2C(=O)N(C)[C@H](CC(C)C)C(=O)N[C@@H](Cc2ccccc2)C(=O)N2CCC[C@H]2C(=O)N(C)[C@H](C)C(=O)N(C)[C@@H](CC(C)C)C(=O)N1C | 3.5
CC(C)C[C@H]1NC(=O)[C@@H](C)N(C)C(=O)[C@@H]2CCCN2C(=O)[C@H](Cc2ccccc2)NC(=O)[C@H](CC(C)C)N(C)C(=O)[C@H]2CCCN2C(=O)[C@H](CC(C)C)N(C)C1=O | 7.2
CC(C)C[C@@H]1NC(=O)C[C@H](Cc2ccccc2)NC(=O)[C@H](Cc2ccccc2)NC(=O)[C@@H](CC(C)C)N(C)C(=O)[C@H]2CCCN2C(=O)[C@H](CC(C)C)NC1=O | 4.4
CCCN1CC(=O)N[C@@H](CC(C)C)C(=O)N(C)[C@H](CC(C)C)C(=O)N2CCC[C@@H]2C(=O)N(C)[C@@H](CC(C)C)C(=O)N[C@@H](Cc2ccccc2)C(=O)N2CCC[C@@H]2C1=O | 1.9
CC(C)C[C@H]1NC(=O)[C@@H](C)NC(=O)[C@H](Cc2ccccc2)NC(=O)[C@H](CC(C)C)N(C)C(=O)[C@@H]2CCCN2C(=O)[C@H](CC(C)C)N(C)C1=O | 1.1
CC(C)C[C@@H]1C(=O)N(C)[C@H](CC(C)C)C(=O)N2CCC[C@H]2C(=O)N(C)[C@H](CC(C)C)C(=O)N[C@@H](Cc2ccccc2)C(=O)N2CCC[C@@H]2C(=O)N[C@@H](C)C(=O)N1C | 2.6
CCCN1CC(=O)N[C@H](CC(C)C)C(=O)N[C@@H](CC(C)C)C(=O)N2CCC[C@H]2C(=O)N(C)[C@H](CC(C)C)C(=O)N[C@@H](Cc2ccccc2)C(=O)N2CCC[C@@H]2C1=O | 2.3
CC(C)C[C@H]1NC(=O)[C@@H]2CCCN2C(=O)CN(Cc2ccccc2)C(=O)[C@H](CC(C)C)N(C)C(=O)[C@H](C)N(C)C(=O)[C@H](Cc2ccccc2)NC1=O | 5.4
CC(C)C[C@@H]1NC(=O)[C@@H]2CCCN2C(=O)[C@@H](CC(C)C)NC(=O)[C@@H](CC(C)C)N(C)C(=O)[C@@H](C)NC(=O)[C@H](Cc2ccccc2)NC1=O | 0.87
CC(C)C[C@@H]1C(=O)N2CCC[C@H]2C(=O)N(Cc2ccccc2)CC(=O)N[C@@H](Cc2ccccc2)C(=O)N2CCC[C@H]2C(=O)N(C)[C@H](C)C(=O)N(C)[C@@H](CC(C)C)C(=O)N1C | 2.1
CC(C)C[C@@H]1NC(=O)[C@@H]2CCCN2C(=O)CN(Cc2ccccc2)C(=O)[C@H](CC(C)C)N(C)C(=O)[C@@H](C)N(C)C(=O)[C@@H]2CCCN2C(=O)[C@H](Cc2ccccc2)NC1=O | 2.1
CC(C)C[C@H]1NC(=O)[C@H](C)N(C)C(=O)[C@@H]2CCCN2C(=O)[C@H](Cc2ccccc2)NC(=O)[C@@H](CC(C)C)NC(=O)[C@@H]2CCCN2C(=O)C[C@H](Cc2ccccc2)NC1=O | 0.22
CC(C)C[C@@H]1NC(=O)[C@H]2CCCN2C(=O)[C@@H](CC(C)C)N(C)C(=O)[C@@H](CC(C)C)NC(=O)[C@H](C)N(C)C(=O)[C@H]2CCCN2C(=O)[C@H](Cc2ccccc2)NC1=O | 0.32
CC(C)C[C@@H]1NC(=O)[C@H]2CCCN2C(=O)C[C@H](Cc2ccccc2)NC(=O)CN(Cc2ccccc2)C(=O)C[C@H](Cc2ccccc2)NC(=O)[C@H]2CCCN2C(=O)[C@H](Cc2ccccc2)NC1=O | 0.79
CC(C)C[C@H]1NC(=O)CN(Cc2ccccc2)C(=O)[C@H](C)N(C)C(=O)[C@H]2CCCN2C(=O)[C@H](Cc2ccccc2)NC(=O)[C@H](CC(C)C)N(C)C(=O)[C@@H]2CCCN2C1=O | 5.1
CC(C)C[C@@H]1C(=O)N(C)[C@H](CC(C)C)C(=O)N2CCC[C@@H]2C(=O)N(Cc2ccccc2)CC(=O)N[C@@H](Cc2ccccc2)C(=O)N[C@@H](C)C(=O)N1C | 7.9
CCCN1CC(=O)N(C)[C@@H](CC(C)C)C(=O)N(C)[C@H](CC(C)C)C(=O)N2CCC[C@H]2C(=O)N(Cc2ccccc2)CC(=O)N[C@@H](Cc2ccccc2)C(=O)N2CCC[C@@H]2C1=O | 5.4

Extract of 2 entries:

structure (SMILES) | PAMPA (10^-6 cm/s)
CC(C)C[C@H]1NC(=O)[C@@H](C)NC(=O)[C@H](Cc2ccccc2)NC(=O)[C@H](CC(C)C)N(C)C(=O)[C@@H]2CCCN2C(=O)[C@H](CC(C)C)N(C)C1=O | 1.1
CC(C)C[C@H]1NC(=O)[C@@H]2CCCN2C(=O)CN(Cc2ccccc2)C(=O)[C@H](CC(C)C)N(C)C(=O)[C@H](C)N(C)C(=O)[C@H](Cc2ccccc2)NC1=O | 5.4

Values of Townsend et al. 2020, doi:10.26434/chemrxiv.13335941.v1, as listed in CycPeptMPDB.